## Yeast mating assay B: variants of the scFv Ab-14

Reference: Li et al. 2023, doi:10.1038/s41467-023-39022-2. File: FLAb, binding data.

Binding partner: SARS-CoV-2 spike HR2 peptide, sequence PDVDLGDISGINAS.

Parent scFv Ab-14: VH joined to VL by the linker GGGGSGGGGSGGGGS. Changes lie in the light chain CDRs alone.
VH: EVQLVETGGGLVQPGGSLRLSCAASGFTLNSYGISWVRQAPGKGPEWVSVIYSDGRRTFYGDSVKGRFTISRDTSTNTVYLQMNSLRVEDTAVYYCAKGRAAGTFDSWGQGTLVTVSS
VL: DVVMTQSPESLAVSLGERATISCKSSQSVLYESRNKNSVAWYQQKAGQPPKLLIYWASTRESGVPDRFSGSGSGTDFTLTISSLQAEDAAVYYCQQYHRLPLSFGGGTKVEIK

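The variants were designed computationally from a first round of random CDR variants and then made and measured. Several design methods are mixed in this list. Affinity was read by AlphaSeq, a pooled yeast mating assay with surface-displayed partners. Mating (16 h, 30 °C) was followed by selection of diploids and sequencing of their barcodes. The ratio of observed to expected reads was calibrated, replicate by replicate, on BCL2-family standards whose Kd was known from biolayer interferometry. Mating was done six times.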

Variants are written as CDR1, CDR2 and CDR3 of the light chain (limits as in the source). Parent: KSSQSVLYESRNKNSVA, WASTRES, QQYHRLPLS. Variants here have more than six changes. Scale: log10 of Kd in nM, estimated from mating counts; low values are strong binders. Averages over replicates are reported, and they cover detected replicates only. "n.d." means that the variant was in the library but no mating with the target was seen in that replicate; the authors take this as a sign of poor binding, and no number exists. Order: sorted from the lowest average up, undetected variants last. The authors' rule: three or more of the six replicates give a measured affinity, fewer mean a poor binder.

CDR-L1,CDR-L2,CDR-L3,log10 Kd (nM) by replicate,"log10 Kd (nM), mean"
KLSQSGGYEQRNSNSVA,EASTRED,QQYHRLPLS,0.01 / -0.42 / -0.66 / -0.59 / -0.39 / -0.12,-0.36
QLQWYNTYATASASNIA,DGAQRAN,QQYMRLPLM,-0.20 / -0.26 / -0.38 / -0.64 / -0.15 / -0.30,-0.32
SLEAFEYQIMKDLNNIA,NTQTRAN,QQYMRLPFM,-0.04 / -0.57 / 0.07 / -0.40 / -0.28 / 0.29,-0.16
KLNEYKHETEEKTQNIA,DQTIREP,QQYAHLPLA,-0.16 / 0.20 / -0.21 / -0.20 / -0.04 / 0.14,-0.05
TVSQVHEMLSRNKNSVA,DMNTRED,QQYDRLPLS,0.38 / 0.12 / 0.28 / 0.24 / -0.18 / -0.02,0.14
KLQQSVEYQARNQNSVA,SASTRLH,QQYHRLPLS,0.28 / 0.32 / 0.21 / 0.55 / -0.04 / -0.14,0.20
KSQISQWYEDRNKNSVA,SASTREH,QQYHRLPLS,0.33 / 0.26 / 0.09 / 0.03 / 0.23 / 0.30,0.21
HISMSFMTESVNRNSVA,HQSTREQ,QQYDRLPLS,0.49 / 0.53 / 0.33 / 0.34 / -0.18 / 0.35,0.31
SIGGFMKSLSAHMNSVA,DMTNRED,QQYDRLPLS,0.63 / 0.32 / 0.40 / 0.32 / 0.35 / 0.55,0.43
QLGAVQDMTSKNKNSIA,EQSTREN,QQYHRLPLS,0.07 / 0.64 / 0.31 / 0.44 / 0.62 / 0.60,0.45
KMSQEVDLESRNDNSVA,MASCRED,QQYHRLPLS,0.47 / 0.66 / 0.41 / 0.39 / 0.54 / 0.57,0.51
KMQQSELMESRNMNSVA,HASKRES,QDYHRLPLS,0.82 / 0.70 / 0.19 / 0.38 / 0.58 / 0.84,0.59
HMSESEHGDNVGVGNMA,NAQETVA,QQYHHLPLS,0.64 / 0.65 / 0.50 / 0.57 / 0.46 / 0.93,0.63
HLSDTVMQGSYYYNSVA,QESTRAD,QQYHRLPLS,0.29 / 0.56 / 0.82 / 0.63 / 0.89 / 0.81,0.67
IISQSVMFQQTLINSVA,NAQTRED,QQYHRLPLS,0.76 / 0.68 / 0.70 / 0.46 / 1.01 / 0.68,0.72
KLTATMRFEQKASNNIA,EVTQRSK,QQYARLPLS,0.80 / 0.72 / 0.73 / 0.83 / 0.87 / 1.06,0.84
MFSQLTYTGTRTRNAVA,QASTREN,QQYHHLPLS,0.42 / 0.71 / 0.75 / 1.13 / 0.75 / 1.26,0.84
KLASVTGTEKVHGNNVA,EMETRES,QQYNRLPLS,1.23 / 1.11 / 0.23 / 0.77 / 0.48 / 1.41,0.87
GILSQMDGISAYKENIA,NEAERLR,QQYQRLPLT,1.07 / 0.66 / 1.04 / 0.71 / 0.81 / 1.11,0.90
HITGAMELEWSNKYPVA,SATDRAP,QSYFRLPLM,1.23 / 1.21 / 0.65 / 0.51 / 0.69 / 1.41,0.95
TLSQMWGMESHHKNNVA,QEETREK,QQYFRLPIS,1.22 / 0.94 / 1.04 / 0.87 / 1.05 / 0.66,0.96
SFSLESLGSKNEEASIA,STETLMS,QDYARLPLA,1.35 / 1.09 / 0.98 / 0.93 / 0.62 / 1.05,1.00
KLSMSYRHESENKNSIA,ELVTRMS,QQYHRLPLS,n.d. / 1.66 / n.d. / 0.71 / 0.84 / n.d.,1.07
HITLGMYVAGRHSHSIA,QAETREK,QQYDRLPLA,1.02 / 1.09 / 1.52 / 0.99 / 1.00 / 1.02,1.11
GILSQMDGPTEYKENIA,NETERLR,QQYQRLPLT,1.59 / 1.14 / 0.76 / 1.02 / 1.19 / 1.06,1.13
MIAQGLRGVGRNKNSVA,NAQTRLS,QHYHRLPLS,1.31 / 1.77 / 0.87 / 1.06 / 1.00 / 1.03,1.17
KIGGVTNGISRSKNSVA,EQSTRED,QQYDRLPLA,1.32 / 1.40 / 1.00 / 0.73 / 1.34 / 1.69,1.24
KLSLVLGVSKQVEKNIA,NERLKIA,QQYDRLPLT,1.54 / 0.88 / 1.48 / 1.09 / 1.17 / 1.39,1.26
TISGVMQTQSHSKNNVA,EVSMRLK,QQYFRLPLE,0.94 / 1.80 / 1.76 / 0.91 / 0.73 / 1.49,1.27
MMSQVSGSGTRHRNNVA,QTSMREI,QQYDRLPLI,1.41 / 1.28 / 1.37 / 1.09 / 1.35 / 1.27,1.30
MISQVMNTLTRYGNNVA,DLQERED,QQYFRLPLS,1.37 / 1.09 / 1.47 / 1.16 / n.d. / 1.44,1.31
KFQQSVMMGDRNKNSVA,KASTRLS,QQYHRLPLS,1.56 / 1.33 / 0.83 / 0.92 / 1.85 / 2.09,1.43
TISGMSNNATSKHNSVA,NVTMRPD,QQYHRLPLS,2.30 / 1.46 / 0.81 / 1.42 / 1.89 / 0.96,1.47
KLSMTIEMELKNRNSVA,ELVTRMS,QQYNRLPLS,2.18 / 1.03 / 0.67 / 0.39 / 2.55 / 2.50,1.55
KFAYGLDYNSAHKSAVA,HADIRVI,QQYFRLPLD,1.41 / 1.77 / 1.17 / 2.44 / 2.27 / n.d.,1.81
IVSQLMLWGMHVKNSIA,EAQTRIN,QQYDRLPLF,n.d. / 1.81 / n.d. / n.d. / n.d. / n.d.,1.81
MISQLYNMGTFAINSVA,QASLRCN,QQYDRLPLA,n.d. / n.d. / 1.77 / 1.36 / 1.20 / 2.95,1.82
TIGQSLMQGIRNRSNVA,EVSQRLN,QQYDRLPLM,1.86 / 1.94 / 2.03 / 1.98 / 1.43 / 1.83,1.84
KISQMVRVGSTHNNSIA,EEATRAK,QQYHRLPLS,n.d. / 1.33 / 1.89 / 2.52 / 1.97 / 1.66,1.88
QLSLMENHMGDRMHSVA,DTNQAKT,QDYFRLPLM,n.d. / 1.76 / 3.20 / n.d. / n.d. / n.d.,2.48
TIGQVMNYESRNRNSVA,QTSTREE,QDYDRLPLS,n.d. / n.d. / 2.59 / 1.97 / 3.12 / n.d.,2.56
SLYEMNYELSGKTHSVA,DNSTRGE,QQYFRLPLD,n.d. / n.d. / n.d. / 2.94 / n.d. / n.d.,2.94
KLSMSVRMESFVKDNVA,ENSTREE,QDYHRLPLS,n.d. / 3.37 / n.d. / n.d. / n.d. / n.d.,3.37
IISELYNQAAGMRNNVA,NNQTRED,QQYDRLPLS,n.d. / n.d. / n.d. / n.d. / n.d. / n.d.,n.d.
KMSQSVLYESRFLNSVA,YASTRQN,QQYHRLPES,n.d. / n.d. / n.d. / n.d. / n.d. / n.d.,n.d.
IVSQLMLWGHLAKNSIA,EAVTRYN,QQYDRLPLM,n.d. / n.d. / n.d. / n.d. / n.d. / n.d.,n.d.

From the list, the first 3 with no signal in any replicate:

| CDR-L1 | CDR-L2 | CDR-L3 | log10 Kd (nM) by replicate | log10 Kd (nM), mean |
|---|---|---|---|---|
| IISELYNQAAGMRNNVA | NNQTRED | QQYDRLPLS | n.d. / n.d. / n.d. / n.d. / n.d. / n.d. | n.d. |
| KMSQSVLYESRFLNSVA | YASTRQN | QQYHRLPES | n.d. / n.d. / n.d. / n.d. / n.d. / n.d. | n.d. |
| IVSQLMLWGHLAKNSIA | EAVTRYN | QQYDRLPLM | n.d. / n.d. / n.d. / n.d. / n.d. / n.d. | n.d. |

The parent sequence was in this pool as ten entries: three were never detected, three once, and four in most replicates, with averages from 0.34 to 2.37. The range of this assay differs from that of the first round, and the authors advise against merging the two. As a blank, each scFv also met three strains without target: over all light chain designs, 4% of these pairings were detected, typically at 2.64 and seldom below 1.59.